Results published in US20100330200A1, “COMBINATION OF A RETINOID AND A PLATINUM ANTICANCER AGENT” (SIGMA-TAU INDUSTRIE FARMACEUTICHE RIUNITE S.P.A., priority 2006, published 2010).
Values joined by “and” are separate entries in the source; they are usually repeats but may differ in a detail not shown here. Equal entries are not always repeated.

System: IGROV-1 ovarian carcinoma
Assay: s.c. growing IGROV-1 tumor, ST1926 doses and schedules

O=C(O)/C=C/c1ccc(-c2ccc(O)c(C34CC5CC(CC(C5)C3)C4)c2)cc1 [ST1926, E-4-(3-(1-adamantyl)-4-hydroxyphenyl)cinnamic acid]
Tox (No. of dead mice/total no. of mice) (15 mg/kg oral qdx2/wx2w): 0/4
Tox (No. of dead mice/total no. of mice) (15 mg/kg oral qdx5/wx3w): 0/4
Tox (No. of dead mice/total no. of mice) (20 mg/kg oral qdx5/wx2w, 20 mg/kg): lethal toxicity and 2/4
Tox (No. of dead mice/total no. of mice) (5 × 2 mg/kg oral qdx5/wx4w): 0/4
